According to ChEMBL document CHEMBL4680122, “Design, synthesis and biological evaluation of new Axl kinase inhibitors containing 1,3,4-oxadiazole acetamide moiety as novel linker” (Eur J Med Chem, 2020):

Key:
Homo sapiens [1] = species on record: Homo sapiens; test: Selectivity ratio of IC50 for MER (unknown origin) to IC50 for inhibition of human N-terminal GST-fused Axl cytoplasmic domain (464 to 885 residues) expressed in baculovirus expression system
Homo sapiens [2] = species on record: Homo sapiens; test: Selectivity ratio of IC50 for inhibition of human N-terminal GST-fused FLT3 cytoplasmic domain (564 to 993 residues) expressed in baculovirus expression system to IC50 for inhibition of human N-terminal GST-fused Axl cytoplasmic domain (464 to 885 residues) expressed in baculovirus expression system
Homo sapiens [3] = species on record: Homo sapiens; test: Selectivity ratio of IC50 for inhibition of human His-tagged PDGFRB cytoplasmic domain expressed in baculovirus expression system to IC50 for inhibition of human N-terminal GST-fused Axl cytoplasmic domain (464 to 885 residues) expressed in baculovirus expression system
Homo sapiens [4] = species on record: Homo sapiens; test: Selectivity ratio of IC50 for TYRO3 (unknown origin) to IC50 for inhibition of human N-terminal GST-fused Axl cytoplasmic domain (464 to 885 residues) expressed in baculovirus expression system

Ratio IC50 (Homo sapiens [1]): > 10
Ratio IC50 (Homo sapiens [2]): > 10
Ratio IC50 (Homo sapiens [3]): > 10
Ratio IC50 (Homo sapiens [4]): > 10
Structure (SMILES): COc1cc2c(Oc3ccc(NC(=O)C4(c5nnc(-c6ccc(F)cc6)o5)CC4)cc3F)ccnc2cc1OCCCN1CCCCC1
